In patent publication US20220135678A1, “METHODS AND COMPOSITIONS TO IMPROVE THE SAFETY AND EFFICACY OF CELLULAR THERAPIES” (University of Southern California, priority 2019, published 2022):

Assays:
CD34+ stem cells (HSCs) = assay: Control and AMR-expressing HSC exposed to CAR-T cells in vitro; format: cell-based, human; details: AMR expressing HSCs
From the text: G-CSF mobilized peripheral blood stem cells and bone marrow stem cells are obtained from University of Southern California. CD34+ stem cells are selected by purification using magnetic beads. AMR targeting CD33 (SEQ ID NO: 1749), CD123 (SEQ ID NO: 1763), MPL (SEQ ID NO: 1846), FLT3 (SEQ ID NO: 1810) and BST1 (SEQ ID NO: 1908) are expressed in the CD34+ stem cell using lentiviral mediated gene transfer according to methods known in the art. […] The control and AMR-expressing HSC are exposed to different T cells expressing CAR (e.g., 2nd generation CAR, TFP, SIR and Ab-TCR) targeting the corresponding antigens.
Similarly, expressing of AMR targeting MPL, CD123, BST1 and FLT3 in HSC are shown to protect them against killing by CAR-T cells targeting MPL, CD123, BST1 and FLT3, respectively. The protective effect is also observed in vivo.

human myeloid cells = assay: NSG mice engrafted with control or CD33-AMR HSPCs given autologous CD33 CAR-T cells; format: in vivo
Protocol: NSG mice engrafted with control or CD33-AMR HSPCs are given autologous CD33 CAR-T cells, and residual human myeloid cells are assessed after 4 weeks. […] Myeloid cells are detected in the peripheral blood, spleen, and bone marrow of the CD33-AMR HSPC-engrafted mice after CD33 CAR-T treatment, in contrast to the myeloablation seen in control HSPC-engrafted mice.

human CD34+ cells = assay: Engraftment of control or CD33-AMR HSCs in NSG mice; format: in vivo; details: twelve weeks after injection
Protocol: More detailed functional evaluation of AMR HSCs is performed in comparison with control HSC in vivo. NSG mice are engrafted with either control or CD33-AMR HSCs. […] The CD33-AMR HSCs differentiated into mature myeloid cells (neutrophils and macrophages). Cell morphology is analyzed by cytospin and characteristic cell surface markers (CD1 lb, CD 15, CD 14, CD 16, CD45, CD66b, and HLA-DR) by flow cytometry.
CD33-AMR human CD34+ cells are capable of long-term multi-lineage engraftment. Primary human CD34+ cells are derived from G-CSF mobilized peripheral blood and lead to equivalent number and morphology of hematopoietic myeloid and erythroid colonies. 8-12 week old NSG mice are injected with either control or CD33-AMR CD34+ cells. Twelve weeks later, the percentage of hCD45 in peripheral blood (engraftment) is measured. […] Bone marrow is harvested from NSG mice after 16 weeks of primary engraftment then transferred into secondary recipients and analyzed after 12 additional weeks. Sustained human engraftment with persistent CD33-low phenotype is observed. In the bone marrow, no difference in total human engraftment between the CD33-AMR or CD33WT groups is observed, with differentiation into lymphoid and myeloid lineages, with the exception of decreased CD33 expression. […]

[1] = system: CD19 on RAJI (CD19+) cells; assay: CD19 surface expression on transduced RAJI cells, flow cytometry with PE-conjugated FMC63 antibody (antigen masking); format: cell-based; details: Example 14, puromycin selected
From the text: A panel of CARs targeting CD19 were generated using antigen binding domains derived from FMC63 (SEQ ID NO: 205), hu-mROO5-1 (SEQ ID NO: 211) and CD19-MM (SEQ ID NO: 209) scFVs respectively. The CARs were generated on 2nd generation CAR backbone with 41BB costimulatory domain (SEQ ID NO: 12228, 12230 and 12234) double chain SIR (SEQ ID NO: 12229 and 12233), TFPε (SEQ ID NO: 12231 and 12235) and TFPδ (SEQ ID NO: 12232 and 12236) backbones. The constructs also co-expressed a puromycin resistance gene (PAC). The lentiviral vectors encoding the different CAR constructs were used to infect RAJI (CD19+) cells. The cells were selected with puromycin. Flow cytometry with PE-conjugated FMC63 antibody was used to detect the expression of CD19 on the surface of the CAR-expressing cells. […] In contrast, there was no decrease in binding of FMC63 to RAJI cells transducted with FMC63 and hu-mROO5-1 based SIRs (SEQ ID NO: 12229 and 12233). […]
In another exemplary experiment, the experiment is repeated with lentiviral vectors encoding FMC63- or hum-mROO5-1-based cTCR, Ab-TCR, TFPαβ and TFPγδ. No decrease in the cell surface expression of CD19, as measured by binding of PE-conjugated FMC63, is observed in RAJI cells transduced with lentiviral vectors encoding cTCR, Ab-TCR, TFPαβ and TFPγδ comprising antigen binding domains based on FMC63 scFV (SEQ ID NO: 205) and hu-mROO5-1 scFv (SEQ ID NO: 211). […]

[2] = Patient with cytokine release syndrome and neurological complications after haploidentical stem cell transplant; format: in vivo, human; details: 900 mg intravenously on day 6 after stem cell transplant, repeated weekly
Protocol: A patient with myelofibroris receives haploidentical peripheral blood stem cell transplant using their child as a donor. The patient receives reduced intensity conditioning with Melphalan (100 mg/m2 on day −6), Fludarabine (25 mg/m2×4 on days −5 to −2) and total body irradiation (TBI) of 200 cGy on day −1. Following infusion of haploidentical stem cells on Day 0, the patient receives post-transplant Cyclophosphamide 50 mg/kg×2 on days+3 and +4 and intravenous hydration with normal saline at rate of 250 ml/h for 24 hours after the completion of cyclophosphamide. Patient develops cytokine release syndrome and neurological complications after infusion of stem cells which are manifested by worsening renal function, oliguria, hypotension, fever, tachycardia, tachypnea, increased oxygen requirement and altered mental status. Patient is administered intravenous fluids and supplement oxygene without significant improvement. […] The dose of Ecoluzimab is repeated at weekly interval depending on the discretion of the physician.

B1: CD33-AMR: antigen masking receptor targeting CD33 expressed in CD34+ stem cells by lentiviral gene transfer (protein)
chain: MALPVTALLLPLALLLHAARPDEIVLTQSPGSLAVSPGERVTMSCKSSQSVFFSSSQKNYLAWYQQIPGQSPRLLIYWASTRESGVPDRFTGSGSGTDFTLTISSVQPEDLAIYYCHQYLSSRTFGQGTKLEIKRGGGGSGGGGSGGGGSQVQLQQPGAEVVKPGASVKMSCKASGYTFTSYYIHWIKQTPGQGLEWVGVIYPGNDDISYNQKFQGKATLTADKSSTTAYMQLSSLTSEDSAVYYCAREVRLRYFDVWGQGTTVTVSSTRAKPTTTPAPRPPTPAPTIASQPLSLRPEACRPAAGGAVHTRGLDFACDIYIWAPLAGTCGVLLLSLVITLYCKRGRKK
residual cells after CD33 CAR-T treatment in vitro (CD34+ stem cells (HSCs)): significant number of residual cells remaining | myeloid cells in AMR HSPC-engrafted mice after CD33 CAR-T (human myeloid cells; assessed after 4 weeks): sustained | human progenitor cells after CD33 CAR-T treatment compared to controls (human myeloid cells; mouse, in vivo): significantly increased | B cells (CD 19+), CD3+ T cells and non-lymphoid cells in peripheral blood versus control (human CD34+ cells): no significant difference

B2: SEQ ID NO: 12233: hu-mROO5-1 based CD19 double chain SIR, co-expressing PAC (protein)
chain: MALPVTALLLPLALLLHAARPDIQMTQSPSSLSASVGDRVTITCKASDHINNWLAWYQQKPGQAPKLLIYGATTLETGVPSRFSGSGSGTDYTLTISSLQPEDFATYYCQQSWNTPWTFGQGTKLEIKRLEDLKNVFPPEVAVFEPSKAEIAHTQKATLVCLATGFYPDHVELSWWVNGKEVHSGVCTDPQPLKEQPALNDSRYCLSSRLRVSATFWQNPRNHFRCQVQFYGLSENDEWTQDRAKPVTQIVSAEAWGRADCGITSASYHQGVLSATILYEILLGKATLYAVLVSALVLMAMVKRKDSRGRAKRSGSGATNFSLLKQAGDVEENPGPTSMDWIWRILFLVGAATGAHSFEQVQLQQPGAELVKPGASVKMSCKASGYAFSSYWINWMKQKPGQGLEWIGQIYPGDGDTNYNGKFKGRATLTADTSSSTAYMQLSSLTSEDSAVYFCARSITTVVGCAMDYWGQGTSVTVSSTRIQNPDPAVYQLRDSKSSDKSVCLFTDFDSQTNVSQSKDSDVYITDKCVLDMRSMDFKSNSAVAWSNKSDFACANAFNNSIIPEDTFFPSSDVPCDVKLVEKSFETDTNLNFQNLSVIGFRILLLKVAGFNLLMTLRLWSSRAKRSGSGVKQTLNFDLLKLAGDVESNPGPSRGHMTEYKPTVRLATRDDVPRAVRTLAAAFADYPATRHTVDPDRHIERVTELQELFLTRVGLDIGKVWVADDGAAVAVWTTPESVEAGAVFAEIGPRMAELSGSRLAAQQQMEGLLAPHRPKEPAWFLATVGVSPDHQGKGLGSAVVLPGVEAAERAGVPAFLETSAPRNLPFYERLGFTVTADVEVPEGPRTWCMTRKPGA
FMC63 binding to transduced RAJI cells (CD19 surface expression) [1]: no decrease

B3: Ecoluzimab: C5-Inhibitor Eculizumab (antibody, chains of the INN, looked up)
heavy: QVQLVQSGAEVKKPGASVKVSCKASGYIFSNYWIQWVRQAPGQGLEWMGEILPGSGSTEYTENFKDRVTMTRDTSTSTVYMELSSLRSEDTAVYYCARYFFGSSPNWYFDVWGQGTLVTVSSASTKGPSVFPLAPCSRSTSESTAALGCLVKDYFPEPVTVSWNSGALTSGVHTFPAVLQSSGLYSLSSVVTVPSSNFGTQTYTCNVDHKPSNTKVDKTVERKCCVECPPCPAPPVAGPSVFLFPPKPKDTLMISRTPEVTCVVVDVSQEDPEVQFNWYVDGVEVHNAKTKPREEQFNSTYRVVSVLTVLHQDWLNGKEYKCKVSNKGLPSSIEKTISKAKGQPREPQVYTLPPSQEEMTKNQVSLTCLVKGFYPSDIAVEWESNGQPENNYKTTPPVLDSDGSFFLYSRLTVDKSRWQEGNVFSCSVMHEALHNHYTQKSLSLSLG
light: DIQMTQSPSSLSASVGDRVTITCGASENIYGALNWYQQKPGKAPKLLIYGATNLADGVPSRFSGSGSGTDFTLTISSLQPEDFATYYCQNVLNTPLTFGQGTKVEIKRTVAAPSVFIFPPSDEQLKSGTASVVCLLNNFYPREAKVQWKVDNALQSGNSQESVTEQDSKDSTYSLSSTLTLSKADYEKHKVYACEVTHQGLSSPVTKSFNRGEC
mental function [2]: gradual improvement in mental function
